Assay results as given in patent US9958439B2, “Carbohydrate detection” (RICHTER LIFE SCIENCE DEVELOPMENT AB, priority 2012, dated 2018).

Assay: Excitation spectrum of h-FTAA with pure insoluble microcrystalline cellulose suspensions
Conditions: microcrystalline cellulose 6.25-0.0488 mg/ml, 3 μM h-FTAA, excitation ~480 nm, emission 545 nm

For `O=C(O)Cc1cc(-c2ccc(-c3ccc(C(=O)O)s3)s2)sc1-c1ccc(-c2sc(-c3ccc(-c4ccc(C(=O)O)s4)s3)cc2CC(=O)O)s1` [h-FTAA, hepta Formic Thiophene Acetic Acid], which “signal intensity versus cellulose concentration” value is on record?
The value was “increased proportionally with cellulose concentration”.
